According to ChEMBL document CHEMBL1143557, “Discovery of a fluoroindolo[2,3-a]carbazole clinical candidate with broad spectrum antitumor activity in preclinical tumor models superior to the marketed oncology drug, CPT-11” (J Med Chem, 2005):

Legend:
HT-29 [1] = assay: Antitumor activity against HT-29 human colon carcinoma xenograft model; Activity expressed as no. of cures by total (8)
HT-29 [2] = assay: In vivo antitumor activity against HT-29 human colon carcinoma xenograft model when administered iv, (1:1:8 cremophor: ethanol: water vehicle) expressed as optimal effect in LCK
HT-29 [3] = assay: Optimal dose required for antitumor activity against HT-29 human colon carcinoma xenograft model when administered once a day iv dosing every other day for five doses (q2dx5,iv)

## CCc1c2c(cc3ncc(OC(=O)N4CCC(N5CCCCC5)CC4)cc13)C1=CC3=C(COC(=O)[C@]3(O)CC)C(O)N1C2 (stereo partly drawn)
HT-29 [1]
  No. of cures: 0
HT-29 [2]
  Activity: 1.9
HT-29 [3]
  Optimal dose: 50 mg.kg/inj
